Our source for the δt values is EP2963103A1, “pH-sensitive nanocapsules” (Henkel AG & Co. KGaA, priority 2014, dated 2016).

For the data set the following is noted: Hansen-Parameter, δt^2 = δd^2 + δp^2 + δh^2. The text has this: Damit die hydrophobe Verbindung effektiv verkapselt werden kann, ist es erforderlich, dass die Verbindung ausreichend hydrophob ist, so dass sie nicht mit dem aus den Monomeren gebildeten Polymer derart interagiert, dass sie dieses übermäßig quellen und dadurch für die Verbindung stärker permeabel werden lässt. Es ist daher bevorzugt, dass die mindestens eine hydrophobe Verbindung einen Hansen-Parameter δt von weniger als 20, insbesondere weniger als 19 hat; und/oder einen Hansen-Parameter δh von weniger als 10, insbesondere weniger als 6 hat.
Der Hansen-Parameter ist ein in der Polymerchemie weit verbreiteter Parameter zum Vergleich der Löslichkeit bzw. Mischbarkeit von verschiedenen Substanzen. Dieser Parameter wurde von Charles Hansen entwickelt, um die Löslichkeit eines Materials in einem anderen vorherzusagen. Dabei wird die Kohäsionsenergie einer Flüssigkeit betrachtet, welche in mindestens drei verschiedene Kräfte eingeteilt werden kann: (a) Dispersionskräfte zwischen den Molekülen δd, (b) Dipolare intermolekulare Kräfte zwischen den Molekülen δp und (c) Wasserstoffbrückenbindungen zwischen den Molekülen δh. Diese drei Parameter können zu einem Parameter δt zusammengefasst werden nach der Formel δt^2 = δd^2 + δp^2 + δh^2. Je ähnlicher der Hansen-Parameter von unterschiedlichen Materialien ist, desto besser sind diese ineinander mischbar. […]

With Hexenol, the δt is reported as 21,92.
